Data published in publication PMC9266561, “1,3-Benzodioxole Derivatives Improve the Anti-Tumor Efficiency of Arsenicals” (International Journal of Molecular Sciences, 2022).
Read-outs that look alike come from different tables or passages of the source.

Experiments:
Molm-13 = experiment: MTT assay, Molm-13 leukemia cell line; format: cell-based; details: mean
NB4 = experiment: MTT assay, NB4 leukemia cell line; format: cell-based; details: mean
4T1 = experiment: MTT assay, 4T1 breast cancer cell line; format: cell-based; details: mean
HeLa = experiment: MTT assay, HeLa cervix cell line; format: cell-based, human; details: mean
COS-7 = experiment: MTT assay, COS-7 normal kidney cell line; format: cell-based, African green monkey; details: mean
PBMC = experiment: MTT assay, PBMC normal cells; format: cell-based, rat; details: mean
[1] = Pharmaceutic kinetics, blood arsenic content by ICP-MS; details: 1.5 mg/kg intravenously once, up to 48 h
[2] = read-out: IC50 COS-7 24 h, 24 h
[3] = read-out: IC50 COS-7 48 h, 48 h

Row | Structure (SMILES) | IC50 (Molm-13; read-out: IC50 Molm 24 h, 24 h) [µM] | IC50 (Molm-13; read-out: IC50 Molm 48 h, 48 h) [µM] | IC50 (NB4; read-out: IC50 NB4 24 h, 24 h) [µM] | IC50 (NB4; read-out: IC50 NB4 48 h, 48 h) [µM] | IC50 (4T1; read-out: IC50 4T1 24 h, 24 h) [µM] | IC50 (4T1; read-out: IC50 4T1 48 h, 48 h) [µM] | IC50 (HeLa; read-out: IC50 HeLa 24 h, 24 h) [µM] | IC50 (HeLa; read-out: IC50 HeLa 48 h, 48 h) [µM] | IC50 (COS-7; [2]) [µM] | IC50 (COS-7; [3]) [µM] | IC50 (PBMC; read-out: IC50 PBMC 24 h, 24 h) [µM] | IC50 (PBMC; read-out: IC50 PBMC 48 h, 48 h) [µM] | blood arsenic content over time [1]
1 | Nc1ccccc1[As]1SCCCS1 | 0.45 | 0.41 | 0.4 | 0.3 | 0.87 | 0.84 | 0.3 | 0.25 | 1.75 | 0.81 | 3.5 | 2.8 | 
2 | Nc1ccc([As]2SCCCS2)cc1 | 0.6 | 0.53 | 1.5 | 1.2 | 1.67 | 1.89 | 1.01 | 0.7 | 6.1 | 3.2 | 4.6 | 4 | eliminated rapidly
